Laboratory results reported in publication PMC4382718 (Carbohydrate research, 2015).

What was measured:
[1] = biological target: T1, dGMIIb (Drosophila melanogaster Co(II)-activated Golgi α-mannosidase IIb) (Drosophila melanogaster, UniProt Q9VF33); assay: Class II α-mannosidase inhibition assay; format: biochemical
T1 sequence (Q9VF33 31-1249): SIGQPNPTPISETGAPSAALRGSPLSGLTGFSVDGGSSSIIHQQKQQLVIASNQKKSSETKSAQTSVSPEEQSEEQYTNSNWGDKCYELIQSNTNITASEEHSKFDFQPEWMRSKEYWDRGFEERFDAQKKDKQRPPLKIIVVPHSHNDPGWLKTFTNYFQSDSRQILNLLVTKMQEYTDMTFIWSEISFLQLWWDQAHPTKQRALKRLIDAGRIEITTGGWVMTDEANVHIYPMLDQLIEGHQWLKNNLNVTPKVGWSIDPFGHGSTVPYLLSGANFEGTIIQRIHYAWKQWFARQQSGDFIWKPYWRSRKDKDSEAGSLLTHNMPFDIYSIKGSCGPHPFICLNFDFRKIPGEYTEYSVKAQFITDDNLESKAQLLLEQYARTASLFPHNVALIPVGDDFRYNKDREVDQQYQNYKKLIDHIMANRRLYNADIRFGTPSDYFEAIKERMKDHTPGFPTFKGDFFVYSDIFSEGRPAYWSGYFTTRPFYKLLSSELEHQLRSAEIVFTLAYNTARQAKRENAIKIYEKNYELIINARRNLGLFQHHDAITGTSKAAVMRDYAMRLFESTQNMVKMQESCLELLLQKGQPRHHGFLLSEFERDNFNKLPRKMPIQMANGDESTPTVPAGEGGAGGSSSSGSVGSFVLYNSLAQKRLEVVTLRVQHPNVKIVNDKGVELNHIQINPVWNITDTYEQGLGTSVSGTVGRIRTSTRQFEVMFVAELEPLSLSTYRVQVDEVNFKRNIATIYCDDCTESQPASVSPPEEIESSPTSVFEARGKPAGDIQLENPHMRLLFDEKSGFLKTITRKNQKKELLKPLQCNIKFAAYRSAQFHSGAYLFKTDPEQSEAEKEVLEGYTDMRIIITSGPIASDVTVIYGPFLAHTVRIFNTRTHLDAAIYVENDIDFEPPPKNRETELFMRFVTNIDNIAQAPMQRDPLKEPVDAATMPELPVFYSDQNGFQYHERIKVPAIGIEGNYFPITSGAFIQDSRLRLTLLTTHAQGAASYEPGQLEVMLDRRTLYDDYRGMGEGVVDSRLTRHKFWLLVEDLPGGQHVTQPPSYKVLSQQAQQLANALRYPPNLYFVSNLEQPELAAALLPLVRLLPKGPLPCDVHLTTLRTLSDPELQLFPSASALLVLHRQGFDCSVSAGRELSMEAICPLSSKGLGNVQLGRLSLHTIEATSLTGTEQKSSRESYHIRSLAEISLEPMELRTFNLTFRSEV

[2] = biological target: T2, dLManII (Drosophila melanogaster lysosomal α-mannosidase II) (Drosophila melanogaster, UniProt Q9VKV1); assay: Class II α-mannosidase inhibition assay; format: biochemical
T2 sequence (Q9VKV1 25-1080): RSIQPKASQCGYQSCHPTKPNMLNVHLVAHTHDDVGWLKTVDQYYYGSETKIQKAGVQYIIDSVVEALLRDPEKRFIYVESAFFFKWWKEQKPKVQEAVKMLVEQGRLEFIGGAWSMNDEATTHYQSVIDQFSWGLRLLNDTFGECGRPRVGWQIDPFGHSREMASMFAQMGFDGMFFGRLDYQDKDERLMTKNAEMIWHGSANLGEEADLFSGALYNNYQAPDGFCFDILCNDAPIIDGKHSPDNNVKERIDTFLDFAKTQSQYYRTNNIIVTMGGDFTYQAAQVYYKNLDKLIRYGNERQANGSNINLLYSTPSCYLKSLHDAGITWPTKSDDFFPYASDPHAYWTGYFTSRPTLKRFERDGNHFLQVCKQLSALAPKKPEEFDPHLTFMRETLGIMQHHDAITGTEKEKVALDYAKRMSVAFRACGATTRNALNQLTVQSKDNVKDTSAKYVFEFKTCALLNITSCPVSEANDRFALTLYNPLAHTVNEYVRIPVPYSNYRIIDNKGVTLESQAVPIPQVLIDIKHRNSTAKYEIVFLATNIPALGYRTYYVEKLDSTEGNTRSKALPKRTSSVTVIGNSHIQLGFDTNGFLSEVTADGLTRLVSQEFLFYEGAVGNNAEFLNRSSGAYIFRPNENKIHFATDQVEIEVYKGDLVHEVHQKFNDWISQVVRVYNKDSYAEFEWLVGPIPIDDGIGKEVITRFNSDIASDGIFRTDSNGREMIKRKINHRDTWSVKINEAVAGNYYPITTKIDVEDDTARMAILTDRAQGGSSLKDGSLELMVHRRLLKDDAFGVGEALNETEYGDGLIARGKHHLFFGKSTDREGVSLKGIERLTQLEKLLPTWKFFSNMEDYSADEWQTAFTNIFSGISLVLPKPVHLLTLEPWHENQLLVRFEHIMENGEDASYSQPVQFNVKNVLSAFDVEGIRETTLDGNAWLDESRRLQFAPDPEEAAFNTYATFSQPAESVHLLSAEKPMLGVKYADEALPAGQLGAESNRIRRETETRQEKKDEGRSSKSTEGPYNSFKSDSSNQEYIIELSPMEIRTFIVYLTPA

`O[C@H]1[C@H]2[C@H](O)CCCN2C[C@H]1O` [Swainsonine, reference compound] was tested, and the IC50 [1] was 5 nM and the IC50 [2] was 11 nM.
